Chains of the proteins cited; added tags and fusions are not shown.
UniProt O43283, whole entry: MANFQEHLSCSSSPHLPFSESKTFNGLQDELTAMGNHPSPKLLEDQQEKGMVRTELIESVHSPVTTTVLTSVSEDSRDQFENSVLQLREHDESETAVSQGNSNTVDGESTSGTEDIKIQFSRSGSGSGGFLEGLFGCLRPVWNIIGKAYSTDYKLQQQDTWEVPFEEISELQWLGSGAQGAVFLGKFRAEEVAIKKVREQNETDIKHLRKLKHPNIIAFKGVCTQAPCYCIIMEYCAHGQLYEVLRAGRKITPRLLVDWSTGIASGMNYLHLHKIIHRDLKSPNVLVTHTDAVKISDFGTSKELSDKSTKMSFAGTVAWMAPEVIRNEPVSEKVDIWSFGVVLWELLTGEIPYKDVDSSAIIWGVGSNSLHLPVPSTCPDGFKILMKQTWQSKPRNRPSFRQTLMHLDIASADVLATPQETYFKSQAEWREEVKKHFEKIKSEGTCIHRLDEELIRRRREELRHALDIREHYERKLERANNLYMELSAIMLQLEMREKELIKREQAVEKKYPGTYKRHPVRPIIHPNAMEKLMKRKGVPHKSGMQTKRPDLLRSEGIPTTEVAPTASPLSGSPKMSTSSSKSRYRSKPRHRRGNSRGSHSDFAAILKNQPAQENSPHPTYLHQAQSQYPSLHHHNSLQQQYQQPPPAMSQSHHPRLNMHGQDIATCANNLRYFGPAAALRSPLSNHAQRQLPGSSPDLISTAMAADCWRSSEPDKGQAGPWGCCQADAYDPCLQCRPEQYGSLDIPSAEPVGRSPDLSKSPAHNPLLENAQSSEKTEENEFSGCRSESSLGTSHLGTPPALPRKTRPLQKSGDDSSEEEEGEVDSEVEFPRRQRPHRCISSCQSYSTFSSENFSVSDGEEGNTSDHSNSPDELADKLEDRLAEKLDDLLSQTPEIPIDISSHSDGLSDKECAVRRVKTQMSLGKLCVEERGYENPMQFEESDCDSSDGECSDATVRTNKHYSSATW

In US20250032489A1, “MIXED LINEAGE KINASE INHIBITORS AND METHODS OF USE” (The U.S.A., as represented by the Secretary, Department of …, priority 2022, published 2025):

Molecular target: LZK (Homo sapiens (Human), UniProt O43283)
Test: KD determination, Eurofins DiscoveRx Kd-Elect
Assay type: binding
Conditions: ratio of LZK Kd to DLK Kd

With Cc1cnc(Nc2cc(C3CCN(C)CC3)cc(N3CCC(F)(F)C3)n2)cn1 the “Ratio (LZK/DLK)” value was 1.3.
